The numbers were not newly measured in patent US9951115B2, “CGRP agonist peptides” (priority 2013, dated 2018), which cites them from elsewhere.

For the data set the following is noted: native CGRP, background statement; cited from earlier work.

Take “Native CGRP: calcitonin gene-related peptide, a 37 amino acid vasoactive neuropeptide”: the half-life result is on record as “less than 30 minutes”.
